High-throughput results from PubChem BioAssay.
UUG fidelity = alters start codon recognition fidelity in yeast. S. cerevisiae UUG-firefly luciferase reporter, luminescence/redox ratio. AID 602363. activity score, % at 18.7 µM. hit rate 0.13% among 350,000;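 active = replicate mean at a twofold rise or more, about +100% in these data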;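 note: firefly luciferase made from a UUG start codon reports start codon fidelity; reporter light over untreated wells divided by growth signal over untreated wells; some hits fall short of that in this replicate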
XiGFP reactiv = activators of X-chromosome reactivation in mouse fibroblasts | XiGFP mouse fibroblasts, % GFP-positive cells imaging, 3 d; cells co-treated with 5-aza-dC sensitizer; scaled so ellipticine positive control = 100% | activation, % at 7.58 µM | actives 0.055% (n = 360,000) | AID 743238;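 active means mean normalized replicate activation at least 10% and every replicate at or above 10%; inconclusive means only one of the two criteria met; inactive means mean below 10% and not all replicates reach 10%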;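 further: 0% = median of on-plate neutral control wells and 100% = ellipticine 6 µM median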
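System: 68-5-11 XiGFP fibroblast line | Buffer or medium: DMEM containing 5-aza-dC | Compound: Single point | Times: Compounds 3 days, fix/stain 15 min at room temperature | Benchmarks: Positive control ellipticine, 6 µM final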
RAD54 inh = blocks human RAD54 Holliday junction branch migration; Q92698; FAM/BHQ fluorescence; inhibition, % at 10.4 µM; actives 0.14% (n = 360,000); AID 602329;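 active means mean normalized replicate activity at least 40 and at least half of replicates scoring 40 or more; inconclusive means only one of the two criteria met; inactive means mean below 40 and under half of replicates reaching 40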;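 further: 0% = median of neutral control wells and 100% = median of positive control wells; inhibitors cause a drop in the FAM fluorescence signal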
E-selectin induc = E-selectin induction on HUVECs. P16581. HUVEC E-selectin immunofluorescence imaging; normalized: neutral wells 0, TNF-alpha wells 100. activation, % at 7.58 µM. actives 0.37% (n = 260,000). AID 686992;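 active means mean E-selectin-positive cell signal at least 10% of the positive control, reached in at least 60% of replicates, without over 20% cell loss; inconclusive means no rule given, readout overlaps actives, possibly toxicity-flagged; inactive means the rest, including those meeting only one limit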
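Test system: HUVEC | Signal: Immunofluorescence imaging | Read-out: Percent E-selectin-positive cells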
RAD52 inh = blocks human RAD52 DNA annealing; recombinant RAD52 DNA annealing, FRET fluorescence; P43351; actives 0.46% (n = 360,000); inhibition, % at 18.7 µM; AID 651710;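 active means every replicate showing at least 50% inhibition; inconclusive means mean inhibition at least 50% but not in every replicate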
Rad54 DNA ctr = binds DNA, flagging false Rad54 inhibitor hits. AC50, µM (series often up to 35 µM), for inactives: at the top dose activity change, negative = DNA binding. actives 8% (n = 460). Acridine orange-DNA displacement, fluorescence polarization, 20 min. shares compounds with RAD54 inh;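 active means signal drop giving an AC50 within twice the top valid tested concentration of each sample, actives reach about 35 µM in these data; inactive means activity opposite to expected, plus the rest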;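 further: polarization loss reports compound binding to salmon sperm DNA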
An asterisk follows results filed as active; ? = inconclusive; . = no result given; ! = repeats disagree. Hits are enriched below; roughly 0.73% of the tested compounds scored in any of these assays.

SMILES | UUG fidelity | XiGFP reactiv | RAD54 inh | E-selectin induc | RAD52 inh | others
COCC(=O)N(C[C@@H]1N[C@@H](CO)[C@H]1c1ccc(C2=CCCC2)cc1)C(C)C | -2 | 0 | 10 | 0 | .
O=C1NC(=O)c2cc([N+](=O)[O-])cc3cccc1c23 | -16 | 0 | 8 | . | -23
O=C1NC(=O)c2cc(Br)cc3cccc1c23 | . | 0 | . | 204* | 3
COCCNC(=O)C[C@@H]1C[C@@H]2c3cc(NC(=O)Nc4ccc(C(F)(F)F)cc4)ccc3O[C@@H]2[C@H](CO)O1 | . | 0 | -4 | 0 | -18
C[C@@H]1CN([C@H](C)CO)C(=O)c2cc(NS(C)(=O)=O)ccc2O[C@H]1CN(C)C(=O)Nc1ccc2c(c1)OCO2 | -7 | 0 | -1 | 197* | 10
C[C@@H]1CN([C@@H](C)CO)C(=O)c2cc(NS(C)(=O)=O)ccc2O[C@H]1CN(C)C(=O)Nc1ccc2c(c1)OCO2 | -4 | 0 | -7 | -3 | 13
C[C@H]1CN([C@@H](C)CO)C(=O)c2cc(NS(C)(=O)=O)ccc2O[C@H]1CN(C)C(=O)Nc1ccccc1 | -31 | 0 | -5 | -15 | 12
C[C@@H]1CN([C@@H](C)CO)C(=O)c2cc(N(C)C)ccc2O[C@H]1CN(C)C(=O)Nc1cccc2ccccc12 | -2 | -1 | 5 | -8 | 4
C[C@H](CO)N1C[C@H](C)[C@H](CN(C)C(=O)Nc2ccccc2)Oc2ccc(NS(C)(=O)=O)cc2C1=O | -19 | 0 | -1 | 74* | -1
C[C@@H]1CN([C@@H](C)CO)C(=O)c2cc(N(C)C)ccc2O[C@@H]1CN(C)C(=O)Nc1cccc2ccccc12 | 2 | -1 | 0 | 39* | 1
C[C@@H]1CN([C@H](C)CO)C(=O)c2cc(NS(C)(=O)=O)ccc2O[C@H]1CN(C)C(=O)Nc1ccccc1 | -12 | 0 | -11 | 69* | 17
C[C@@H]1CN([C@@H](C)CO)C(=O)c2cc(NS(C)(=O)=O)ccc2O[C@H]1CN(C)C(=O)Nc1ccccc1 | -16 | 0 | -14 | -15 | 2
COCC#Cc1ccc(CC[C@H]2O[C@H]3CC[C@@H](CO)O[C@H]3C[C@H]2n2cc(C(C)(C)O)nn2)cc1 | . | . | . | . | -5
CO[C@@H]1CN(C)C(=O)c2ccc(NC(=O)Nc3cccc(F)c3)cc2OC[C@H](C)N(C(=O)C2CC2)C[C@H]1C | . | 0 | . | 0 | .
O=C(C[C@H]1C[C@H]2c3cc(NC(=O)CC4CC4)ccc3O[C@H]2[C@H](CO)O1)NCCc1ccccc1 | 5 | 0 | 3 | 0 | 2
CNC[C@@H]1Oc2ccc(NS(C)(=O)=O)cc2C(=O)N([C@@H](C)CO)C[C@@H]1C | . | 0 | . | 33* | .
COc1cc(OC)cc(C(=O)NNc2nc3cc4c(cc3s2)OCO4)c1 | -12 | 1 | 0 | 0 | -11
COc1cc(C(=O)NNc2nc3cc4c(cc3s2)OCO4)cc(OC)c1OC | -20 | 0 | 8 | 108* | -11
C[C@H]1CN([C@@H](C)CO)C(=O)c2cc(-c3cncnc3)cnc2O[C@H]1CN(C)Cc1ccc(F)cc1 | . | 1 | . | 1 | -3
N#Cc1cccc(-c2ccc(C3[C@@H]4CN(C(=O)Nc5ccc6c(c5)OCO6)C[C@H]3N4)cc2)c1 (stereo partly specified) | . | 1 | . | -1 | 55*
N#Cc1cccc(-c2ccc(C3[C@@H]4CN(C(=O)c5ccc6c(c5)OCO6)C[C@H]3N4)cc2)c1 (stereo partly specified) | . | 0 | . | 0 | .
O=C(Nc1ccc2c(c1)OCO2)N1C[C@@H]2N[C@H](C1)C2c1ccc(-c2ccccc2)cc1 (stereo partly specified) | . | 0 | . | 0 | 68*
N#Cc1cccc(-c2ccc(C3[C@@H]4CN(C(=O)Nc5ccccc5)C[C@H]3N4)cc2)c1 (stereo partly specified) | . | 0 | . | 0 | 3
N#Cc1ccc(-c2ccc(C3[C@@H]4CN(C(=O)c5ccc6c(c5)OCO6)C[C@H]3N4)cc2)cc1 (stereo partly specified) | . | 0 | . | -1 | 56*!
CC(=O)N1[C@@H]2Cn3c(cccc3=O)[C@H]1[C@@H](C(=O)NCC1CCCCC1)[C@@H]2CO | . | 0 | 8 | 0 | 59*
O=C(NCc1ccccn1)[C@@H]1[C@@H](CO)[C@@H]2Cn3c(cccc3=O)[C@H]1N2CC1CCCCC1 | . | 0 | 11 | 0 | 57*
CC=Cc1ccc2n(c1=O)C[C@H]1[C@H](CO)[C@@H](C(=O)NC3CCCC3)N(CCC)[C@@H]21 (mixture of isomers) | . | 0 | . | 0 | 92*
CC=Cc1ccc2n(c1=O)C[C@H]1[C@H](CO)[C@@H](C(=O)NCc3ccccn3)[C@@H]2N1CCC (mixture of isomers) | . | 2 | 8 | 0 | 96*
CC=Cc1ccc2n(c1=O)C[C@@H]1[C@@H](CO)[C@H](C(=O)NCc3ccccn3)[C@H]2N1CC1CC1 (mixture of isomers) | . | 0 | -12 | 0 | -13
O=C(NCc1ccccc1)[C@H]1[C@H](CO)[C@H]2Cn3c(cccc3=O)[C@@H]1N2CC1CCCC1 | . | 0 | -4 | 0 | 14
CC(C)NC(=O)N1C[C@@H]2[C@H](c3ccccc31)[C@H](CO)N2C(=O)c1cccnc1 | 8 | 0 | -8 | -1 | -2
C[C@H](CO)N1C[C@H](C)[C@@H](CN(C)C(=O)NC2CCCCC2)Oc2ccc(NS(=O)(=O)c3ccccc3)cc2C1=O | 6 | 0 | 0 | 49*! | 1
C[C@H]1CN([C@@H](C)CO)C(=O)c2cc(NS(=O)(=O)c3ccccc3)ccc2O[C@H]1CN(C)C(=O)NC1CCCCC1 | -6 | 0 | -2 | -6 | 11
C[C@@H]1CN([C@H](C)CO)C(=O)c2cc(NS(=O)(=O)c3ccccc3)ccc2O[C@H]1CN(C)C(=O)NC1CCCCC1 | 22 | 0 | 10 | 40* | 5
C[C@@H]1CN([C@@H](C)CO)C(=O)c2cc(NS(=O)(=O)c3ccccc3)ccc2O[C@@H]1CN(C)C(=O)NC1CCCCC1 | 1 | 0 | -4 | 14 | 12
CC(C)(C)CC(=O)Nc1ccc(-c2cn3cccnc3n2)cc1 | -19 | 0 | 6 | 34* | -12
COc1ccc(NC(=O)Nc2ccc3c(c2)[C@H]2C[C@H](CC(=O)NCCc4ccccc4)O[C@H](CO)[C@H]2O3)cc1 | . | 0 | -21 | 1 | 8
CCOC(=O)c1[nH]c2cc3c(cc2c1CCCN1C(=O)c2ccccc2C1=O)OCCO3 | 4 | . | ? | . | . | Rad54 DNA ctr=5%

Some of these compounds in order of length of the SMILES, largest number first:
SMILES | UUG fidelity | XiGFP reactiv | RAD54 inh | E-selectin induc | RAD52 inh | others
C[C@@H]1CN([C@@H](C)CO)C(=O)c2cc(NS(=O)(=O)c3ccccc3)ccc2O[C@@H]1CN(C)C(=O)NC1CCCCC1 | 1 | 0 | -4 | 14 | 12
COc1ccc(NC(=O)Nc2ccc3c(c2)[C@H]2C[C@H](CC(=O)NCCc4ccccc4)O[C@H](CO)[C@H]2O3)cc1 | . | 0 | -21 | 1 | 8
O=C(NCc1ccccc1)[C@H]1[C@H](CO)[C@H]2Cn3c(cccc3=O)[C@@H]1N2CC1CCCC1 | . | 0 | -4 | 0 | 14
N#Cc1cccc(-c2ccc(C3[C@@H]4CN(C(=O)Nc5ccccc5)C[C@H]3N4)cc2)c1 (stereo partly specified) | . | 0 | . | 0 | 3
CC(C)(C)CC(=O)Nc1ccc(-c2cn3cccnc3n2)cc1 | -19 | 0 | 6 | 34* | -12
